Among the data in ChEMBL document CHEMBL1130155, “Synthesis and structure-activity relationships of potent thrombin inhibitors: piperazides of 3-amidinophenylalanine” (J Med Chem, 1997) are Ki values, retold here.

pKi: −log10 of the molar value.

The pKi is −log10 of the Ki, conventionally taken in molar units. Low values mean a high Ki, high ones a low Ki.

The target in this test is Prothrombin (Bos taurus, UniProt P00735).

As to `CS(=O)(=O)N1CCN(C(=O)C(Cc2cccc(C(=N)N)c2)NS(=O)(=O)c2ccc3ccccc3c2)CC1` (stereo unspecified), the pKi is 8.48.
